Test results published in patent US20250144067A1, “PERSONALIZED STARVATION THERAPY FOR CANCER” (Faeth Therapeutics, Inc., priority 2021, published 2025).

Legend:
[1] = system: NCI-H292 lung cancer cells; assay: FDA drug screening, complete media vs cholesterol-free media with simvastatin (TABLE 2)
[2] = system: NCI-H292 lung cancer cells; assay: FDA drug screening, complete media vs cholesterol-free media without statin (TABLE 1)

Acetophenazine (dimaleate)
Cholesterol-free media + simvastatin (0.04 μM) ([1]; NCI-H292 cells, FDA drug library screen, cholesterol-free media with simvastatin 0.04 μM): 0.9453 | Complete Media ([1]; NCI-H292 cells, FDA drug library screen, complete media): 1.168 | Difference ([1]; complete media minus cholesterol-free media + simvastatin, […]): 0.22 | Cholesterol-free ([2]; NCI-H292 cells, cholesterol-free media without statin, FDA drug library screen): 0.5724 | Complete ([2]; NCI-H292 cells, complete media, FDA drug library screen): 1.148 | Difference ([2]; complete vs cholesterol-free media, […]): 0.58
